Target: T1, MIF (Homo sapiens, UniProt P14174)
T1 sequence (P14174 2-115 limits assumed): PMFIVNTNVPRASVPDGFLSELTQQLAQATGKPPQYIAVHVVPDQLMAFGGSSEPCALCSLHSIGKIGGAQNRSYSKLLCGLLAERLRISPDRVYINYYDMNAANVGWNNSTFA
Assay: MIF tautomerase activity assay with 4-HPP as substrate

LE (ligand efficiency) (LE = 1.4(−log IC50)/N): 0.39
LLE (lipophilic ligand efficiency) (LLE = pIC50 – C log P): 2.55
Substance: 4-(4-(isoquinolin-3-yl)-1H-1,2,3-triazol-1-yl)phenol [Compound 10]

Reference: PMC7586407 (Journal of Medicinal Chemistry, 2020)
